These results are taken from PubChem BioAssay AID1700 (The Scripps Research Institute Molecular Screening Center, 2009).

This is a selection; strong and weak results do not stand in their true shares. Some results for these compounds are left out of this collection, so the calls shown say nothing about other tests. Activity calls are given as the source filed them.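 Rule for the calls: active = inhibition above a per-plate limit of that plate's mean compound inhibition plus 3 SD (cut at about 60% in these data); inactive = the rest.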

A short description of the test: suppression of KLF5 promoter-driven luciferase – DLD-1 cells, luminescence, primary screen (AID 1700).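 Note: 0% = DMSO wells and 100% = LY294002 at 200 µM; higher means less KLF5 promoter-driven luciferase light.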 The conditions noted are these: DLD-1 KLF5 promoter-luciferase reporter, at 5 µM, hits give high values. On the technique in general: In a reporter assay the amount or activity of a reporter protein is the signal.
What is called inhibition is the relative decrease from the control value, in per cent. As for `COc1cccc(C(=O)NCC2(N3CCCCC3)CCCCC2)c1`, the inhibition is inactive: -13.1%.

Consider `COc1ccc(Cl)cc1C(=O)NCC1(N(C)C)CCCCC1`, for which the inhibition is inactive: -6.16%.

For `O=C(NCC1(N2CCCCC2)CCCCC1)c1cccc(Cl)c1`, the inhibition is inactive: -9.73%.

Turning to `CN(C)C1(CNC(=O)c2ccc(Br)cc2)CCCCC1`, the inhibition was inactive: -25.1%.

On to `COc1cc(C(=O)NCC2(N(C)C)CCCCC2)c([N+](=O)[O-])cc1OC`, for which the inhibition is inactive: -4.28%.

On to `COc1ccc(Br)c(C(=O)NCC2(N3CCCCC3)CCCCC2)c1`, for which the inhibition is inactive: -2.38%.

On to `CC(C)Oc1ccc(C(=O)NCC2(N(C)C)CCCCC2)cc1`, for which the inhibition is inactive: 3.49%.

Take `CN(C)c1cccc(C(=O)NCC2(N(C)C)CCCCC2)c1`: the inhibition is inactive: -9.46%.

In the case of `O=C(OC1CN2CCC1CC2)C(CO)(c1ccccc1)c1ccccc1` (centres undefined), the inhibition was inactive: -21.6%.

Regarding `CCN(CC)CC(C)C(C)OC(=O)C(O)(c1ccccc1)c1ccccc1` (centres undefined), the inhibition is inactive: -11%.

Regarding `COc1cc(SC)ccc1C(=O)NCC1(N(C)C)CCCCC1`, the inhibition is inactive: -17.3%.

As to `CC(C)N1C(=O)CC2(CCN(CCOC(=O)C(O)(c3ccccc3)c3ccccc3)CC2)C1=O`, the inhibition was inactive: 14.3%.

Take `Cc1ccc(C(=O)NCC2(N3CCCCC3)CCCCC2)cc1`: the inhibition was inactive: 24.7%.

For the compound `O=C(NCC1(N2CCCCC2)CCCCC1)c1cc([N+](=O)[O-])ccc1Cl`, the inhibition was inactive: -25%.

As to `CN1[C@@H]2CC[C@H]1CC(OC(=O)C(O)(c1ccccc1)c1ccccc1)C2` (some centres undefined), the inhibition was inactive: -27.2%.

For the compound `C=CCN1CCN(CCOC(=O)C(O)(c2ccccc2)c2ccccc2)CC1`, the inhibition was inactive: -3.39%.

`O=C(NCC1(N2CCCCC2)CCCCC1)c1cc(F)c(F)cc1Cl`: the inhibition is inactive: 2.43%.

As for `COc1ccc(C(=O)NCC2(N(C)C)CCCCC2)cc1`, the inhibition is inactive: -25.1%.

Take `CCN1CCCC(OC(=O)C2(O)c3ccccc3C=Cc3ccccc32)C1` (centres undefined): the inhibition was inactive: -6.29%.

Consider `Cc1cc(C(=O)NCC2(N3CCCCC3)CCCCC2)ccc1[N+](=O)[O-]`, for which the inhibition was inactive: 26.9%.

Consider `O=C(NCC1(N2CCCCC2)CCCCC1)c1cccc(Br)c1`, for which the inhibition was inactive: -23.1%.

On to `Cc1ccccc1C(=O)NCC1(N2CCCCC2)CCCCC1`, for which the inhibition is inactive: 0.27%.

`CN(C)c1ccc(C(=O)NCC2(N(C)C)CCCCC2)cc1`: the inhibition is inactive: -36.9%.

On to `CN(C)C1CCCC1OC(=O)C(O)(c1ccccc1)c1ccccc1` (centres undefined), for which the inhibition is inactive: -29.1%.
